# From ChEMBL document CHEMBL1136147, “Sub-nanomolar hMC1R agonists by end-capping of the melanocortin tetrapeptide His-D-Phe-Arg-Trp-NH(2)” (Bioorg Med Chem Lett, 2003)
# The chains behind the UniProt entries cited, without tags or fusion partners.
# UniProt P32245, whole entry: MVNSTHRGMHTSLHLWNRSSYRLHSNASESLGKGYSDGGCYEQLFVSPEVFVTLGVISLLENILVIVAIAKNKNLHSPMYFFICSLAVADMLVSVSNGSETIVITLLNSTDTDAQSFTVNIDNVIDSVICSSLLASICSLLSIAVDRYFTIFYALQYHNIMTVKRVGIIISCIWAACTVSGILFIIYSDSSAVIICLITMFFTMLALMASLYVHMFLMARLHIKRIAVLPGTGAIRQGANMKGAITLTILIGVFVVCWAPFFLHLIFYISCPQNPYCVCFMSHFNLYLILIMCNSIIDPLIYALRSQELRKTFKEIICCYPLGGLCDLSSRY
# Assays:
# Melanocortin receptor 4 [1] = target: T1, Melanocortin receptor 4 (Homo sapiens, UniProt P32245); test: Binding affinity towards human melanocortin 4 receptor (hMC4R)
# Melanocortin receptor 4 [2] = target: T1, Melanocortin receptor 4; test: In vitro agonist potency was evaluated in HEK293 cells transfected with human melanocortin receptor (hMC4R); format: functional, cell-based
Structure (SMILES),Ki (Melanocortin receptor 4 [1]),EC50 (Melanocortin receptor 4 [2])
CC(=O)N[C@@H](Cc1c[nH]cn1)C(=O)N[C@@H](Cc1ccccc1)C(=O)N[C@@H](CCCN=C(N)N)C(=O)N[C@@H](Cc1c[nH]c2ccccc12)C(N)=O,280 nM,59.5 nM
NC(=O)[C@H](Cc1c[nH]c2ccccc12)NC(=O)[C@H](CCCN=C(N)N)NC(=O)[C@@H](Cc1ccccc1)NC(=O)[C@H](Cc1cnc[nH]1)NC(=O)CCCc1ccccc1,7.3 nM,4.6 nM
